We go through 1 compound from patent publication EP0591581B1, “N-Alkyl-3-phenyl-3-(2-alkylthiophenoxy)propylamines” (ELI LILLY AND COMPANY, priority 1992, dated 1994).

Protein sequences, listed by entry. Tags and fused reporters are not part of them. Residues count along the entry.
UniProt Q9WTR4, 1-597: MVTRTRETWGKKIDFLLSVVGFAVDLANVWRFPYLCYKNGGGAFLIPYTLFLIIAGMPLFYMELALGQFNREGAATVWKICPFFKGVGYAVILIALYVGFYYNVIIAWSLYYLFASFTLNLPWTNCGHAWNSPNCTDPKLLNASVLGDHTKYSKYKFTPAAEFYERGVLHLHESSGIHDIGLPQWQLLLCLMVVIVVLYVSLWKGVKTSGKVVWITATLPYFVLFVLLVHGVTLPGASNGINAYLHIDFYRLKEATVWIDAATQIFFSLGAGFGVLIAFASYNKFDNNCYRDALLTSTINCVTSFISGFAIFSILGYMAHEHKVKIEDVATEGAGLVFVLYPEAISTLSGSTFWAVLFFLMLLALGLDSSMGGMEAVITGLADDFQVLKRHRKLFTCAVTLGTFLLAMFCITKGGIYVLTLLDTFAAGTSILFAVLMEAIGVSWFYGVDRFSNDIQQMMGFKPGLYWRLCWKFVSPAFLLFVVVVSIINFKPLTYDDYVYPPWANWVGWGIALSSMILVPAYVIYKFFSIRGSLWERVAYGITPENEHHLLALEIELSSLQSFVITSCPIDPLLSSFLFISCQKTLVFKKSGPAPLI

The target of the assay is T1, norepinephrine uptake (Rattus norvegicus, UniProt Q9WTR4).
T1 construct: Crude synaptosomal preparations were isolated after differential centrifugation; from tissue; host or cells: rat cerebral cortex, crude synaptosomes
As to the kind of experiment: Synaptosomal uptake of ³H-norepinephrine in rat cerebral cortex synaptosomes. Type of assay: biochemical, Male Sprague-Dawley rats. As to conditions: Cortical synaptosomes, 50 nM ³H-NE, 37°C for 5 minutes; IC₅₀ by linear regression analysis.

In the case of `CNCCC(Oc1ccccc1OC)c1ccccc1` (stereo not shown) [CH₃O, N-methyl-3-phenyl-3-(2-methoxyphenoxy)propylamine], half-maximal inhibition (IC50) required 7 nM. This counts as single-digit nanomolar.
